This note sets out measurements from ChEMBL document CHEMBL5236635, “Structure-Based Drug Design and Synthesis of Novel N-Aryl-2,4-bithiazole-2-amine CYP1B1-Selective Inhibitors in Overcoming Taxol Resistance in A549 Cells” (J Med Chem, 2022).

What is called IC50 is the point on the concentration scale where inhibition reaches its midpoint.

One test addresses T1, Cytochrome P450 1A1 (Homo sapiens, UniProt P04798).
T1 sequence (P04798 whole entry): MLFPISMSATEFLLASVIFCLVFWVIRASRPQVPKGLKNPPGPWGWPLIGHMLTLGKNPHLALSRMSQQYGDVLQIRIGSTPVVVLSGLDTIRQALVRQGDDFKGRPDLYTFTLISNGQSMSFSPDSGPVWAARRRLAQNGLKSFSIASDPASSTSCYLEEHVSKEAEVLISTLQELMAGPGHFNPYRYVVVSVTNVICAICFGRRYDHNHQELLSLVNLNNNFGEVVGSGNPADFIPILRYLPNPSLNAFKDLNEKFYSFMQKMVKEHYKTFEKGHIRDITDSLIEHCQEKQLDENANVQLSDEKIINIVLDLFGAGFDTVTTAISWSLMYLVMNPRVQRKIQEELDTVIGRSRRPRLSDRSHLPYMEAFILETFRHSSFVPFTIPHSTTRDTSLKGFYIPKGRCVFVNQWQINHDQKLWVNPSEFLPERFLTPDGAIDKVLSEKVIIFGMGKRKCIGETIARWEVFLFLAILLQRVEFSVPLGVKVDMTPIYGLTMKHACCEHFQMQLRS
In words: Inhibition of recombinant human CYP1A1 using 7-ethyl-0-resorufin as substrate incubated for 30 mins in presence of NADPH by EROD assay.

The target of the next test is T2, Cytochrome P450 1B1 (Homo sapiens, UniProt Q16678).
T2 sequence (Q16678 whole entry): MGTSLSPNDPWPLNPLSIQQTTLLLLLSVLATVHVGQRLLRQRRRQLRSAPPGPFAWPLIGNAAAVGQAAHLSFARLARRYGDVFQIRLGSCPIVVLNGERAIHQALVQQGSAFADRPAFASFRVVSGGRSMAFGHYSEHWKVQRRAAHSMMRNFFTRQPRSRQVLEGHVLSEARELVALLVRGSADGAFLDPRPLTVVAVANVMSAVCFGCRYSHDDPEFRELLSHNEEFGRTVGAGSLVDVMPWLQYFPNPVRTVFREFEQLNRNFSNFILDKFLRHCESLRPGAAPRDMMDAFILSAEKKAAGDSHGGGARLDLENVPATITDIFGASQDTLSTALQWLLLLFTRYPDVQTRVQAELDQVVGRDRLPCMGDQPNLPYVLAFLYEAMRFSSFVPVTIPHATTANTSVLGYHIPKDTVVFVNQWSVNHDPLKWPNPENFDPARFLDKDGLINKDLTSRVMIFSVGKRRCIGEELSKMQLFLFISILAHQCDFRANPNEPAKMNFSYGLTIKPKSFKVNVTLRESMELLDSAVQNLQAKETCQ
In words: Inhibition of recombinant human CYP1B1 using 7-ethyl-0-resorufin as substrate incubated for 30 mins in presence of NADPH by EROD assay.

For `COc1cc(/C=C/c2ccc(OC)cc2OC)cc(OC)c1`, the IC50 at Cytochrome P450 1A1 was found to be 209 nM; at Cytochrome P450 1B1 it was 8.23 nM.
